Reference: patent US5461036A, “Spicamycin derivatives and their use as anticancer agents” (priority 1991, dated 1995)

Tested on: human colon cancer (COL-1)
Type: in vivo, mouse
Conditions: /minimum effective dose (effective: TGIR≥50)
Method: (2) Method for measuring the antitumor effect on human colon cancer (COL-1)
COL-1, a human colon cancer, was transplanted subcutaneously into nude mice. When the tumor had grown to a volume of about 100 mm^3, the nude mice were divided into groups of 5 animals so that the average tumor volumes of respective groups were equalized. The respective spicamycin derivatives were administered to test groups at their MTDs, while physiological saline (solvent) containing 1% DMSO and 1% Cremophor EL® was administered to the control group. […] RV is expressed as RV =Vn/Vo where Vn is the tumor volume on day n and Vo is the initial tumor volume at the time treatment was commenced.

CCCCCCCCC/C=C/C(=O)NCC(=O)N[C@@H]1[C@@H](O)[C@@H](O)[C@@H](Nc2ncnc3[nH]cnc23)O[C@H]1C(O)CO (stereo partly drawn) [SPK86, 6-[4'-N-(N'-trans-2-dodecenoylglycyl)spicaminyl-amino]purine]
Therapeutic index: 4
